Experimental data published in paper PMC12075652, “ATP functions as a pathogen-associated molecular pattern to activate the E3 ubiquitin ligase RNF213” (Nature Communications, 2025).

Sequences of proteins named here, by UniProt entry; tags and fusion partners are left off.
UniProt P68036, whole entry: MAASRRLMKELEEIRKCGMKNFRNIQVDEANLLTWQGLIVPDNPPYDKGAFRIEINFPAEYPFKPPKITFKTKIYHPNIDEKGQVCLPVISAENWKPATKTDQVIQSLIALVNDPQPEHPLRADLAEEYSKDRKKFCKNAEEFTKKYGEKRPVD

Biological target: T1, UBE2L3 (human, UniProt P68036 1-154)
T1 construct: UBE2L3, human E2 ubiquitin-conjugating enzyme; source: E. coli, purified (size-exclusion chromatography)
Test: ITC; UBE2L3 (70 µM) in the cell, CTD domain (715 µM) in the syringe, 13 injections; 20 mM Na2HPO4, 200 mM NaCl, 0.5 mM TCEP
Conditions: both partners purified

B1: RNF213 CTD domain (human residues 4986-5207), untagged (domain or fragment, UniProt Q63HN8 4986-5207, looked up)
chain: NYEHLFMDIKNKMAQDSLPSSVISAISGQLQSYSDACEVLSVVEVTLGFLSTAGGDPNMQLNVYTQDILQMGDQTIHVLKALNRCQLKHTIALWQFLSAHKSEQLLRLHKEPFGEISSRYKADLSPENAKLLSTFLNQTGLDAFLLELHEMIILKLKNPQTQTEERFRPQWSLRDTLVSYMQTKESEILPEMASQFPEEILLASCVSVWKTAAVLKWNREMR
notes: also called isolated purified CTD domain; source: E. coli BL21(DE3), purified (glutathione sepharose, PreScission cleavage, SEC)
Kd: > 500 µM
